Columns and labels:
[1] = substrate: Nc1nc(N)c2[nH]nc([C@@H]3O[C@H](CO)[C@@H](O)[C@H]3O)c2n1; assay: (§1) Kinetic parameter was determined against calf intestine adenosine deaminase expressed as Vmax
[2] = substrate: Nc1nc(F)nc2c([C@@H]3O[C@H](CO)[C@@H](O)[C@H]3O)n[nH]c12; assay: as §1
[3] = substrate: Nc1ncnc2c([C@@H]3O[C@H](CO)[C@@H](O)[C@H]3O)[nH]nc12; assay: as §1

B1: Adenosine deaminase (Bos taurus), P56658 (protein)
chain: MAQTPAFNKPKVELHVHLDGAIKPETILYYGRKRGIALPADTPEELQNIIGMDKPLSLPEFLAKFDYYMPAIAGCREAVKRIAYEFVEMKAKDGVVYVEVRYSPHLLANSKVEPIPWNQAEGDLTPDEVVSLVNQGLQEGERDFGVKVRSILCCMRHQPSWSSEVVELCKKYREQTVVAIDLAGDETIEGSSLFPGHVKAYAEAVKSGVHRTVHAGEVGSANVVKEAVDTLKTERLGHGYHTLEDATLYNRLRQENMHFEVCPWSSYLTGAWKPDTEHPVVRFKNDQVNYSLNTDDPLIFKSTLDTDYQMTKNEMGFTEEEFKRLNINAAKSSFLPEDEKKELLDLLYKAYGMPSPASAEQCL
With B1 the Vmax [1] was 1250 M/min/mg, the Vmax [2] was 17 M/min/mg and the Vmax [3] was 4000 M/min/mg.

Reference: ChEMBL document CHEMBL1123068, “2-Fluoroformycin and 2-aminoformycin. Synthesis and biological activity” (J Med Chem, 1985)
